Results taken from article PMC11252418, “Specific glycine-dependent enzyme motion determines the potency of conformation selective inhibitors of threonyl-tRNA synthetase” (Communications Biology, 2024).
Where “and” joins values, the source holds several entries; their conditions need not be identical. Identical values can stand only once.

By UniProt entry, the sequences of proteins in these tests, tags left out. Residues count along the entry.
UniProt P0A8M3, 242-642 G463S limits assumed: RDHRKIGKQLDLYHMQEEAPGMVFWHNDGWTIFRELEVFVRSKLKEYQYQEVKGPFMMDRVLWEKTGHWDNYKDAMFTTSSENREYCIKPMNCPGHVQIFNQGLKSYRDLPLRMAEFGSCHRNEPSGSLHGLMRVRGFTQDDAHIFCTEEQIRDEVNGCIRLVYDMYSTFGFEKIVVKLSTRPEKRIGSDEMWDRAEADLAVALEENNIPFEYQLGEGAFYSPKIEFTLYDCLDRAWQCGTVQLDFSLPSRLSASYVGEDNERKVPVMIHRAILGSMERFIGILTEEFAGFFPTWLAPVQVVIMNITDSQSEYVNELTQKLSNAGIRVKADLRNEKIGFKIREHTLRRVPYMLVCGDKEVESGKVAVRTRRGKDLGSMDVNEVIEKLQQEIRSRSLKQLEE
UniProt P0A8M3, 242-642 G463S/Q484A limits assumed: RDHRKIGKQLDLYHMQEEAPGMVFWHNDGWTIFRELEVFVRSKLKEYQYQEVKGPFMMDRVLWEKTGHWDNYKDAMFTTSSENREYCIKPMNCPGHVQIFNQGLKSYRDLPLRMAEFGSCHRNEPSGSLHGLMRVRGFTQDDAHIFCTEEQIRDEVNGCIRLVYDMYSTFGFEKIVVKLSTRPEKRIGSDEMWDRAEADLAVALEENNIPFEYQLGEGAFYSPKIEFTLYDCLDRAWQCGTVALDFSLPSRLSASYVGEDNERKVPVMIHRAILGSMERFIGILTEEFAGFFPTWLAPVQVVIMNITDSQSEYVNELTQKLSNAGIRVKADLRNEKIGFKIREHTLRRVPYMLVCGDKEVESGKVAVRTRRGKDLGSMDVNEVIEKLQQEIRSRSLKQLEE
UniProt P0A8M3, 242-642 G463A limits assumed: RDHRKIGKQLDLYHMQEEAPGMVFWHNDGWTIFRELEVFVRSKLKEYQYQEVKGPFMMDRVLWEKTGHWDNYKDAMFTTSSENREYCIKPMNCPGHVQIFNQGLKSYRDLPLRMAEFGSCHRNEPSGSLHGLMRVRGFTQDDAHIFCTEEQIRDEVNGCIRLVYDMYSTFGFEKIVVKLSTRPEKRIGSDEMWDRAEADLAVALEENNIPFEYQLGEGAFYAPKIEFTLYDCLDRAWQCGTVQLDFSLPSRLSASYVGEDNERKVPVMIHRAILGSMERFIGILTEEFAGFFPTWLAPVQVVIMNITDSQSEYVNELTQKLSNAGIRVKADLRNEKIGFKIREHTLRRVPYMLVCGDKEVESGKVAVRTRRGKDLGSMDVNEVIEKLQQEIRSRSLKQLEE
UniProt P0A8M3, 242-642 A316N limits assumed: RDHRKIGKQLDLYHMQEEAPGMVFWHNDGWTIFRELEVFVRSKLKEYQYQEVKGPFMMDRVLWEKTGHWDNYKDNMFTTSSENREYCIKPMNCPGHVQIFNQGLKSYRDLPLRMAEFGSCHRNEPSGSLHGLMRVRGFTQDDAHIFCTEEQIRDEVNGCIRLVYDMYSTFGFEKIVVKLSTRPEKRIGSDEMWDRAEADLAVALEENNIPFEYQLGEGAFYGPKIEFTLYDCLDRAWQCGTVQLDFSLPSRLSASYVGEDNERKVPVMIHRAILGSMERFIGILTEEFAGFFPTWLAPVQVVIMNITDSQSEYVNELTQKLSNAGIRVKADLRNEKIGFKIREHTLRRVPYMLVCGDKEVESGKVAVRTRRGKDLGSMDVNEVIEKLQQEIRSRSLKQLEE
UniProt P0A8M3, 242-642 limits assumed: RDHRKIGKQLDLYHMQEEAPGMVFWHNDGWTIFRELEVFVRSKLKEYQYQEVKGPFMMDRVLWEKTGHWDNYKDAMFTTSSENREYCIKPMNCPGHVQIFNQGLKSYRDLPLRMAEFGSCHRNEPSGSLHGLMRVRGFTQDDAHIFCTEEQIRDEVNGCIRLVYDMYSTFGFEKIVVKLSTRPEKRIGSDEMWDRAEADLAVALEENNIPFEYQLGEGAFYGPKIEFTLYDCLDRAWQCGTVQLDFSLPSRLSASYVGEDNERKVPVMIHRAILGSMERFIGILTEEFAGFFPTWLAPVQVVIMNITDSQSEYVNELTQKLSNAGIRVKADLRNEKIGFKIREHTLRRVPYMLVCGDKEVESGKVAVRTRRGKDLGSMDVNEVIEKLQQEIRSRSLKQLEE
UniProt P0A8M3, 242-642 L489M limits assumed: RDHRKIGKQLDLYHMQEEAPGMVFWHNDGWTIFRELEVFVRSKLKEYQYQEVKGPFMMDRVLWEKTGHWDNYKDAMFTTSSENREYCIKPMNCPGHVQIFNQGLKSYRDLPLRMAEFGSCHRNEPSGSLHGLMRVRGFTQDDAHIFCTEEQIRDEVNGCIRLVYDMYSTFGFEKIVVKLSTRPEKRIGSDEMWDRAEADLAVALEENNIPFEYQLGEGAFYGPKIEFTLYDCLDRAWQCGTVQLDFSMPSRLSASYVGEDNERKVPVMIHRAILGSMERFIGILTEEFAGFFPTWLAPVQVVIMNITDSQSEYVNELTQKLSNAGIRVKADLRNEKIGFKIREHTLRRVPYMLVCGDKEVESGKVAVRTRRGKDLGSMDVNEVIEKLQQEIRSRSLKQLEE

Columns and labels:
EcThrRS_G463A [1] = biological target: T1, EcThrRS_G463A (Escherichia coli, UniProt P0A8M3, G463A)
EcThrRS_WT [2] = biological target: T2, EcThrRS_WT (Escherichia coli, UniProt P0A8M3)
EcThrRS_WT [3] = biological target: T2, EcThrRS_WT; remark: listed apart in the source
EcThrRS_G463S [4] = biological target: T3, EcThrRS_G463S (Escherichia coli, UniProt P0A8M3, G463S)
EcThrRS_G463S_Q484A [5] = biological target: T4, EcThrRS_G463S_Q484A (Escherichia coli, UniProt P0A8M3, G463S/Q484A); assay: Thermal shift assay (TSA); type: binding
EcThrRS_L489M = EcThrRS_L489M (Escherichia coli, UniProt P0A8M3, L489M); assay: Thermal shift assay (TSA); type: binding; conditions: 2 μM protein, 20 μM compound, mean n = 4
EcThrRS_G463A [6] = biological target: T1, EcThrRS_G463A; assay: Thermal shift assay (TSA); type: binding; conditions: source data sheet Fig.5a, ThrRS_G463A
EcThrRS_A316N = EcThrRS_A316N (Escherichia coli, UniProt P0A8M3, A316N); assay: Thermal shift assay (TSA); type: binding; conditions: source data sheet Fig.S4a, ThrRS_A316N
EcThrRS_G463S [7] = biological target: T3, EcThrRS_G463S; assay: Thermal shift assay (TSA); type: binding
EcThrRS_G463S_Q484A [8] = biological target: T4, EcThrRS_G463S_Q484A
[9] = 2 μM protein, 20 μM compound, mean n = 4

C[C@@H](O)[C@H](N)C(=O)NC(CNC(=O)CCn1cnc2cc(Cl)c(Cl)cc2c1=O)c1cccc(-c2ccc3c(c2)CNC3=O)c1 (stereo partly drawn)
Kd (EcThrRS_G463A [1]): 19.5 nM | ΔTm (increase of Tm) (EcThrRS_WT [2]): 29.4 °C and 30.5 °C | Kd (EcThrRS_WT [3]): 7.3 nM | Kd (EcThrRS_G463S [4]): 8.4 nM | ΔTm (increase of Tm) (EcThrRS_G463S_Q484A [5]; [9]): 27.6 °C | ΔTm, single replicates (EcThrRS_G463S_Q484A [5]; source data sheet Fig.3c, ThrRS_G463S_Q484A): 27.6 °C and 27.5 °C (2×) and 27.8 °C | ΔTm (increase of Tm) (EcThrRS_L489M): 22.7 °C | ΔTm, single replicates (EcThrRS_G463A [6]): 21.6 °C (2×) and 21.7 °C and 22.8 °C | ΔTm, single replicates (EcThrRS_A316N): 32 °C and 31.3 °C and 31.4 °C (2×) | ΔTm (increase of Tm) (EcThrRS_G463S [7]; [9]): 22.1 °C | ΔTm, single replicates (EcThrRS_G463S [7]; source data sheet Fig.2a, ThrRS_G463S): 21.9 °C and 22.1 °C (2×) and 22.2 °C | Kd (EcThrRS_G463S_Q484A [8]): 18.9 nM
